This note sets out measurements from article PMC4243247, “The DUSP–Ubl domain of USP4 enhances its catalytic efficiency by promoting ubiquitin exchange” (Nature Communications, 2014).

Holding throughout (settings): both partners purified
Assay [1] has as its target T1, N-terminally TAMRA-labelled ubiquitin (UniProt P0CG48 1-76, TAMRA on the N-terminus).
T1 construct: ubiquitin, the cut product of the ubiquitin precursors; also called TAMRAUb; TAMRA-Ubiquitin
In words: fluorescence polarisation; equilibrium: different concentrations of USP4 with 2.5 nM TAMRA-ubiquitin; same setup as the Ub–Rhod assays (25 °C, 20 mM HEPES pH 7.5, 150 mM NaCl, 5 mM DTT, 0.05% Tween 20); one-site binding model accounting for ligand depletion.

Assay [2] deals with T1, N-terminally TAMRA-labelled ubiquitin. In words: fluorescence polarisation; stopped-flow, dissociation: USP4 constructs (12.5–250 nM) incubated with 2.5 nM TAMRA-ubiquitin 10–30 min, mixed with equal volume of 2.5 μM non-labelled ubiquitin; 20 °C; 20 mM HEPES pH 7.5, 150 mM NaCl, 5 mM DTT, 0.05% Tween 20; global fit to a two-phase decay (k_slow, k_fast). (In fluorescence polarisation assays a small probe gives low polarisation when free and higher when bound to something large.)

The target is the same in assay [3]. Description: fluorescence polarisation; stopped-flow, association: equal volumes of USP4 (100–1,000 nM) and TAMRA-ubiquitin rapidly mixed; 20 °C; 20 mM HEPES pH 7.5, 150 mM NaCl, 5 mM DTT, 0.05% Tween 20; single exponential, kon as slope of Kobs against USP4 concentration.

B1: USP4 FL (residues 8–925), isoform 1 (enzyme, human, UniProt Q13107 8-925, looked up)
chain: RERPDAETQKSELGPLMRTTLQRGAQWYLIDSRWFKQWKKYVGFDSWDMYNVGEHNLFPGPIDNSGLFSDPESQTLKEHLIDELDYVLVPTEAWNKLLNWYGCVEGQQPIVRKVVEHGLFVKHCKVEVYLLELKLCENSDPTNVLSCHFSKADTIATIEKEMRKLFNIPAERETRLWNKYMSNTYEQLSKLDNTVQDAGLYQGQVLVIEPQNEDGTWPRQTLQSKSSTAPSRNFTTSPKSSASPYSSVSASLIANGDSTSTCGMHSSGVSRGGSGFSASYNCQEPPSSHIQPGLCGLGNLGNTCFMNSALQCLSNTAPLTDYFLKDEYEAEINRDNPLGMKGEIAEAYAELIKQMWSGRDAHVAPRMFKTQVGRFAPQFSGYQQQDSQELLAFLLDGLHEDLNRVKKKPYLELKDANGRPDAVVAKEAWENHRLRNDSVIVDTFHGLFKSTLVCPECAKVSVTFDPFCYLTLPLPLKKDRVMEVFLVPADPHCRPTQYRVTVPLMGAVSDLCEALSRLSGIAAENMVVADVYNHRFHKIFQMDEGLNHIMPRDDIFVYEVCSTSVDGSECVTLPVYFRERKSRPSSTSSASALYGQPLLLSVPKHKLTLESLYQAVCDRISRYVKQPLPDEFGSSPLEPGACNGSRNSCEGEDEEEMEHQEEGKEQLSETEGSGEDEPGNDPSETTQKKIKGQPCPKRLFTFSLVNSYGTADINSLAADGKLLKLNSRSTLAMDWDSETRRLYYDEQESEAYEKHVSMLQPQKKKKTTVALRDCIELFTTMETLGEHDPWYCPNCKKHQQATKKFDLWSLPKILVVHLKRFSYNRYWRDKLDTVVEFPIRGLNMSEFVCNLSARPYVYDLIAVSNHYGAMGVGHYTAYAKNKLNGKWYYFDDSNVSLASEDQIVTKAAYVLFYQRRDD
notes: ubiquitin-specific protease USP4, human, residues 8-925, isoform 1; pET-NKI His-3C-LIC vector; His tag removed with 3C protease; also called USP4 FL isof; full-length USP4
Usually Kd stands for the concentration at which binding is half-saturated. Low readings indicate a tighter complex, high ones a looser complex. For orientation: kon means the rate constant with which the complex forms. Higher therefore signals faster complex formation. In the case of B1, the Kd in assay [1] turned out to be 92 ± 21 nM. In assay [2], the “k_fast (dissociation, fast component)” value stood at 0.55 ± 0.016 s⁻¹ and the “k_slow (dissociation, slow component)” value stood at 0.053 ± 0.003 s⁻¹. The kon in assay [3] was determined as 5.1e+06 ± 230000 M⁻¹ s⁻¹.

B2: USP4 catalytic domain (USP4 CD, residues 296–925) (domain or fragment, human, UniProt Q13107 296-925, looked up)
chain: HIQPGLCGLGNLGNTCFMNSALQCLSNTAPLTDYFLKDEYEAEINRDNPLGMKGEIAEAYAELIKQMWSGRDAHVAPRMFKTQVGRFAPQFSGYQQQDSQELLAFLLDGLHEDLNRVKKKPYLELKDANGRPDAVVAKEAWENHRLRNDSVIVDTFHGLFKSTLVCPECAKVSVTFDPFCYLTLPLPLKKDRVMEVFLVPADPHCRPTQYRVTVPLMGAVSDLCEALSRLSGIAAENMVVADVYNHRFHKIFQMDEGLNHIMPRDDIFVYEVCSTSVDGSECVTLPVYFRERKSRPSSTSSASALYGQPLLLSVPKHKLTLESLYQAVCDRISRYVKQPLPDEFGSSPLEPGACNGSRNSCEGEDEEEMEHQEEGKEQLSETEGSGEDEPGNDPSETTQKKIKGQPCPKRLFTFSLVNSYGTADINSLAADGKLLKLNSRSTLAMDWDSETRRLYYDEQESEAYEKHVSMLQPQKKKKTTVALRDCIELFTTMETLGEHDPWYCPNCKKHQQATKKFDLWSLPKILVVHLKRFSYNRYWRDKLDTVVEFPIRGLNMSEFVCNLSARPYVYDLIAVSNHYGAMGVGHYTAYAKNKLNGKWYYFDDSNVSLASEDQIVTKAAYVLFYQRRDD
notes: USP4, human, catalytic domain with the insert, residues 296-925; unlabelled form, used in the fluorescence polarisation and activity assays
Consider B2, for which the affinity in assay [1], expressed as Kd, was 44 ± 7 nM. Also, in assay [2], the “k_fast (dissociation, fast component)” value is 0.011 ± 0.0008 s⁻¹ and the “k_slow (dissociation, slow component)” value came to 0.0013 ± 1e-05 s⁻¹. For the same molecule, the kon in assay [3] came out at 74000 ± 17000 M⁻¹ s⁻¹.
